pIC50: −log10 of the molar value.
Test system: right atrium in the guinea pig
Test: tissue or blood
Conditions: Cavia porcellus, read-out: concentration of 50% inhibition (IC50) of contraction width

| Compound | pIC50 |
| --- | --- |
| COc1ccc2c(c1)CN(C(=O)CCN1CCC(Cc3ccccc3)CC1)CC[S+]2[O-] (centres unmarked) [compound [III], 4-[3-(4-benzylpiperidin-1-yl)propionyl]-7-methoxy-2,3,4,5-tetrahydro-1,4-benzothiazepine-1-oxide] | 4.44 |
| COc1ccc2c(c1)CN(C(=O)CCN1CCC(Cc3ccc(O)cc3)CC1)CC[S+]2[O-] (centres unmarked) [compound [IV], 4-{3-[4-(4-hydroxybenzyl)piperadin-1-yl]propionyl}-7-methoxy-2,3,4,5-tetrahydro-1,4-benzothiazepine-1-oxide] | 3.96 |

Reference: patent US9340533B2, “1,4-benzothiazepine-1-oxide derivative and pharmaceutical composition utilizing the same” (priority 2009, dated 2016)
